Reference: ChEMBL document CHEMBL5579828, “Novel thiosemicarbazide-based β-carboline derivatives as α-glucosidase inhibitors: Synthesis and biological evaluation” (Eur J Med Chem, 2024)
Calls of active or inactive are those of the source.

Key:
Type in all cases: functional, organism-based
Mus musculus [1] = experiment: Antidiabetic activity in STZ-induced diabetic SPF C57/6J male mouse model assessed as decrease in serum TG level at 50 mg/kg/day, po administered for 4 weeks
Mus musculus [2] = experiment: Antidiabetic activity in STZ-induced diabetic SPF C57/6J male mouse model assessed as reduction in blood glucose at 50 mg/kg/day, po administered for 25 days followed by glucose administration on 25th day and measured after 0 to 150 mins by OGTT; settings: time 25.0 day
Mus musculus [3] = experiment: Antidiabetic activity in STZ-induced diabetic SPF C57/6J male mouse model assessed as decrease in serum TC level at 50 mg/kg/day, po administered for 4 weeks
Mus musculus [4] = experiment: Antidiabetic activity in STZ-induced diabetic SPF C57/6J male mouse model assessed as decrease in fasting blood glucose at 50 mg/kg/day, po administered for 4 weeks

Measured: Activity

C[C@H]1O[C@H](O[C@H]2[C@H](O)[C@@H](O)[C@@H](O[C@H]3[C@H](O)[C@@H](O)C(O)O[C@@H]3CO)O[C@@H]2CO)[C@H](O)[C@@H](O)[C@@H]1N[C@H]1C=C(CO)[C@@H](O)[C@H](O)[C@H]1O (some centres undefined)
active: all assays above
